Assay results from ChEMBL document CHEMBL1157126, “Synthesis and biological activity of N(4)-phenylsubstituted-6-(2,4-dichloro phenylmethyl)-7H-pyrrolo[2,3-d]pyrimidine-2,4-diamines as vascular endothelial growth factor receptor-2 inhibitors and antiangiogenic and antitumor agents” (Bioorg Med Chem, 2010).

The chains behind the UniProt entries cited, without tags or fusion partners.
UniProt P09619, whole entry: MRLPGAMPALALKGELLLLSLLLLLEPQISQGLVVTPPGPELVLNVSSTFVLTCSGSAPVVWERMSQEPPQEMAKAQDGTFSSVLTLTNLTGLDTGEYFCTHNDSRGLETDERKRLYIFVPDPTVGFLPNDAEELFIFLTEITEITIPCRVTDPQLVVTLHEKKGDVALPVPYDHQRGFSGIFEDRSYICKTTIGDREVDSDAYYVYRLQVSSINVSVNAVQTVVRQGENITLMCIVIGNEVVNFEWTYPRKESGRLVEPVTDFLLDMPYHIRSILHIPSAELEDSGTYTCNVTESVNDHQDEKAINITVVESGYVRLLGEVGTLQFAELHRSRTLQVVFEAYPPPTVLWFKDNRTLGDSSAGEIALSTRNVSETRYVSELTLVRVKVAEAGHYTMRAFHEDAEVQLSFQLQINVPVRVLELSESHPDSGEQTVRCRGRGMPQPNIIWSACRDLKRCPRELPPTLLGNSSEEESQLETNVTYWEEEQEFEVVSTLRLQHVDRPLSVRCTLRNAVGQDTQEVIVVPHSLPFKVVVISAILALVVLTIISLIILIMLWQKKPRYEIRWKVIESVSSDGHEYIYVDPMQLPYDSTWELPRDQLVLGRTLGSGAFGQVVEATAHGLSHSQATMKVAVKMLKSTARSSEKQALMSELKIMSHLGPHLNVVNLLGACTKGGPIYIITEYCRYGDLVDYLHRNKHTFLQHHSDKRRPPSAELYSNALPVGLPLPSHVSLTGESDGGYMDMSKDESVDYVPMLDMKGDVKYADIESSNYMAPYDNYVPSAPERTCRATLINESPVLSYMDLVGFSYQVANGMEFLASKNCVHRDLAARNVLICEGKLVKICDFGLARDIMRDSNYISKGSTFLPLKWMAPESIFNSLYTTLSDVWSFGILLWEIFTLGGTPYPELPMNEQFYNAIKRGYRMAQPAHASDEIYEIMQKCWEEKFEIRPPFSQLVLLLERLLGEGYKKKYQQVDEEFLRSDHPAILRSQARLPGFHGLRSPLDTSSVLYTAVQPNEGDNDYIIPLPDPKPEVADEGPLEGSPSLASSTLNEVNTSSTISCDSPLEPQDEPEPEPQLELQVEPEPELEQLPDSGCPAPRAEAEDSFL

Molecular target: Platelet-derived growth factor receptor beta (Homo sapiens, UniProt P09619)
Experiment: Inhibition of PDGFRbeta phosphorylation in human SF539 cells after 10 mins by FLISA

CN(C)c1ccc(/C=C2\C(=O)Nc3ccccc32)cc1
IC50: 3.7 µM
